Data from patent US8389532B2, “7-[2-[4-(6-fluoro-3-methyl-1,2-benzisoxazol-5-yl)-1-piperazinyl]ethyl]-2-(1-propynyl)-7H-pyrazolo-[4,3-E]-[1,2,4]-triazolo-[1,5-C]-pyrimidin-5-amine” (Merck Sharp & Dohme Corp., priority 2005, dated 2013).

Tested on: 6-OHDA lesioned rats
Experiment: 6-OHDA lesion of the middle forebrain bundle in rats (contralateral turning with subthreshold L-DOPA)
Assay type: in vivo, rat
Conditions: sub-threshold L-DOPA alone (4 mpk ip plus benserazide 4 mpk ip)
Method: 6-OHDA Lesion of the Middle Forebrain Bundle in Rats
Adult male Sprague-Dowley rats (Charles River, Calco, Como, Italy), weighing 275-300 g, are used in all experiments. The rats are housed in groups of 4 per cage, with free access to food and water, under controlled temperature and 12 hour light/dark cycle. The day before the surgery the rats are fasted over night with water ad libitum.
Unilateral 6-hydroxydopamine (6-OHDA) lesion of the middle forebrain bundle is performed according to the method described by Ungerstedt et al. (Brain Research, 1971, 6-OHDA and Cathecolamine Neurons, North Holland, Amsterdam, 101-127), with minor changes. Briefly, the animals are anaesthetized with chloral hydrate (400 mg/kg, ip) and treated with desipramine (10 mpk, ip) 30 min prior to 6-OHDA injection in order to block the uptake of the toxin by the noradrenergic terminals. Then, the animals are placed in a stereotaxic frame. […]
Two weeks after the lesion the rats are administered with L-DOPA (50 mg/kg, ip) plus Benserazide (25 mg/kg, ip) and selected on the basis of the number of full contralateral turns quantified in the 2 h testing period by automated rotameters (priming test). […]

Work on `N[C@@H](Cc1ccc(O)c(O)c1)C(=O)O` [L-DOPA, reference compound] yielded a contralateral turning of 171±47 rotations.
